The numbers were not newly measured in patent publication US20220211661A1, “GREEN TEA CATECHINS EUTECTIC SYSTEM” (ASSISTANCE PUBLIQUE - HOPITAUX DE PARIS, priority 2019, published 2022), which cites them from elsewhere.

Several values for one entry are separate records, joined by “and”; a condition that tells them apart may be missing. Equal entries are not always repeated.

For (-)-epigallocatechin-3-gallate [EGCG], the “solubility of EGCG in DMSO” value (ambient temperature) was not above 25 mg/mL. In addition, for the setting “normal condition”, the EGCG solubility is 4.6 g/L and 10 mM.
